This is an account of results in patent US6537522B1, “Neuroprobes for mapping monoamine reuptake sites” (Amersham PLC, priority 1992, dated 2003).

Sequences of proteins named here, by UniProt entry; tags and fusion partners are left off. Residues count along the entry.
UniProt Q63380, 1-617: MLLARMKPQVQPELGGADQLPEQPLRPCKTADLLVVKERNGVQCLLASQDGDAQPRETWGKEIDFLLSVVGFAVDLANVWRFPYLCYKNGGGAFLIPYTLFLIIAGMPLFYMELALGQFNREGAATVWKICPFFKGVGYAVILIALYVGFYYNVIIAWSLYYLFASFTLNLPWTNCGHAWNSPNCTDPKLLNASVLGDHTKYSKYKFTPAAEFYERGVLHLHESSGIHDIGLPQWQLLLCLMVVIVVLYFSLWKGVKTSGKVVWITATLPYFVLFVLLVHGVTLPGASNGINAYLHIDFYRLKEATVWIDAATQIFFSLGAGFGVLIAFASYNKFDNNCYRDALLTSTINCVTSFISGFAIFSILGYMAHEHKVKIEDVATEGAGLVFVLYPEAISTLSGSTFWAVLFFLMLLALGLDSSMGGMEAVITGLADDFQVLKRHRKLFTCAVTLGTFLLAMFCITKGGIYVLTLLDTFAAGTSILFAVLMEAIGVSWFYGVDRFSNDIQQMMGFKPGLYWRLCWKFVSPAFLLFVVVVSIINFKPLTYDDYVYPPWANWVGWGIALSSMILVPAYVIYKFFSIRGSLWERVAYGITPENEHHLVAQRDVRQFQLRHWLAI

This assay addresses T1, NET (norepinephrine transporter) (Rattus norvegicus, UniProt Q63380).
T1 construct: or frontoparietal cerebral cortex (for 5-HTT and NET); from tissue; host or cells: rat brain frontoparietal cerebral cortex, crude membrane fraction
Description: NET assay, [3H]nisoxetine binding, rat frontoparietal cerebral cortex membranes. The note with it: radioligand, 50 Ci/mmol. The protocol:
N-phthalimidopropyl-β-CIT (see Example 10) was analyzed as follows. Stock solutions (1 mM) of test agents were made in 95% ethanol/DMSO (1/1, v/v) and stored at −5° C. until used by diluting in a large excess of each assay buffer. Agents are tested at six concentrations in duplicate, with a crude membrane fraction of homogenates of rat brain corpus striatum (for DAT assays) in Tris-citrate buffer (pH 7.4) containing Na^+ ([…]) and Mg^2+ (4 mM) or frontoparietal cerebral cortex (for 5-HTT and NET) in 50 mM Tris-HCl buffer (pH 7.4) containing Na^+ ([…]) and K^+ (5 mM) following methods reported by Neumeyer et al., J. Med. Chem. 37, 1558-1561 (1991), the whole of which is incorporated by reference herein.

A word on the Kd: it is the equilibrium constant for the complex coming apart.

Take [^3H]nisoxetine [reference compound]: binding was characterised by a dissociation constant (Kd) of 0.8 nM.
